Test results from patent EP2710378B1, “METHOD TO PROGNOSE VIRAL INFECTION BY MEASURING T CELL RESPONSE OR AUTO-ANTIBODIES TO APOPTOTIC EPITOPES” (Università degli Studi di Roma "La Sapienza", priority 2011, dated 2012).

The compounds below were run on HLA-A2. Conditions: not given.
Assay type: binding, Human
Work on CC(C)C[C@H](NC(=O)[C@H](C)NC(=O)[C@H](CC(=O)O)NC(=O)[C@@H](NC(=O)[C@H](CCC(=O)O)NC(=O)[C@H](CS)NC(=O)[C@@H](NC(=O)[C@H](CC(C)C)NC(=O)[C@@H](N)CO)[C@@H](C)O)C(C)C)C(=O)O [compound 207] yielded an Alleles bound of 3.
CC(C)C[C@H](NC(=O)[C@H](CC(C)C)NC(=O)[C@H](CCCCN)NC(=O)[C@H](CCCCN)NC(=O)[C@H](CCC(=O)O)NC(=O)[C@H](CCCCN)NC(=O)[C@H](C)NC(=O)[C@H](CC(C)C)NC(=O)[C@@H](N)CCCCN)C(=O)O [compound 138] was tested, and the Alleles bound was 1.
Compound CC(C)C[C@H](NC(=O)[C@H](CCC(=O)O)NC(=O)[C@H](CC(=O)O)NC(=O)[C@H](CCC(=O)O)NC(=O)[C@H](CC(C)C)NC(=O)[C@H](CCC(=O)O)NC(=O)[C@H](CCC(=O)O)NC(=O)[C@H](CC(C)C)NC(=O)[C@@H](N)CCC(N)=O)C(=O)O [compound 117] has an Alleles bound of 2.
With KLRNWQWWRL the Alleles bound was 2.

Same assay, conditions: Table 8, peptides derived from fragmented proteins; number of the five HLA-A2 alleles bound
CC[C@H](C)[C@H](NC(=O)[C@H](CC(C)C)NC(=O)[C@H](CO)NC(=O)[C@H](CCC(=O)O)NC(=O)[C@H](CC(=O)O)NC(=O)[C@H](CC(=O)O)NC(=O)[C@H](CCCCN)NC(=O)[C@H](CC(=O)O)NC(=O)[C@H](CCSC)NC(=O)[C@@H](N)CCC(=O)O)C(=O)O [compound 195] was tested, and the Alleles bound was 0.
In the case of CC(C)C[C@H](NC(=O)[C@H](CO)NC(=O)[C@H](CCC(=O)O)NC(=O)[C@@H](NC(=O)[C@H](CCCCN)NC(=O)[C@H](CCCNC(=N)N)NC(=O)[C@H](CCC(=O)O)NC(=O)[C@H](CC(C)C)NC(=O)[C@@H](N)CC(=O)O)C(C)C)C(=O)O [compound 218], the Alleles bound is reported as 2.

Same assay, conditions: Table 9, peptides derived from not fragmented proteins; number of the five HLA-A2 alleles bound
In the case of CC(C)C[C@H](NC(=O)CN)C(=O)N[C@@H](CCCCN)C(=O)N[C@@H](CO)C(=O)N[C@@H](CCCCN)C(=O)N[C@H](C(=O)N[C@@H](Cc1c[nH]cn1)C(=O)N[C@@H](C)C(=O)N[C@H](C(=O)O)C(C)C)[C@@H](C)O [compound 236], the Alleles bound is reported as 0.
For CC(C)C[C@H](NC(=O)[C@H](CC(C)C)NC(=O)[C@H](CCCNC(=N)N)NC(=O)[C@H](C)NC(=O)[C@H](CC(=O)O)NC(=O)[C@H](C)NC(=O)[C@@H](NC(=O)[C@H](CC(C)C)NC(=O)CN)[C@@H](C)O)C(=O)O [compound 240], the Alleles bound was 5.

Same assay, conditions: Table 11, peptides derived from apoptotic cell-associated proteins, pools 1-4; number of the five HLA-A2 alleles bound
With CC[C@H](C)[C@H](NC(=O)[C@H](CC(C)C)NC(=O)[C@@H](N)C(C)C)C(=O)NCC(=O)NCC(=O)N[C@@H](CCCCN)C(=O)N1CCC[C@H]1C(=O)N[C@@H](CC(=O)O)C(=O)N[C@@H](CCCNC(=N)N)C(=O)N[C@H](C(=O)O)C(C)C the Alleles bound was 3.
In the case of CC[C@H](C)[C@H](NC(=O)[C@@H](N)[C@@H](C)O)C(=O)N[C@@H](Cc1c[nH]c2ccccc12)C(=O)N[C@@H](C)C(=O)N[C@@H](C)C(=O)N[C@@H](CC(N)=O)C(=O)N[C@@H](C)C(=O)NCC(=O)N[C@H](C(=O)O)C(C)C, the Alleles bound is reported as 5.
CC(C)C[C@H](NC(=O)[C@@H](N)CCCCN)C(=O)N[C@@H](CO)C(=O)N1CCC[C@H]1C(=O)N[C@@H](CO)C(=O)N1CCC[C@H]1C(=O)N[C@@H](CO)C(=O)N[C@@H](CO)C(=O)N[C@@H](CCCNC(=N)N)C(=O)N[C@H](C(=O)O)C(C)C showed an Alleles bound of 3.

Same assay, conditions: Table 12, peptides derived from apoptotic cell-associated proteins, pools 5-6; number of the five HLA-A2 alleles bound
For CC(C)C[C@H](NC(=O)[C@H](Cc1cnc[nH]1)NC(=O)[C@H](CCC(=O)O)NC(=O)CNC(=O)[C@H](C)NC(=O)CNC(=O)[C@H](CO)NC(=O)[C@H](CC(C)C)NC(=O)[C@H](CC(C)C)NC(=O)[C@@H](N)Cc1ccc(O)cc1)C(=O)O, the Alleles bound was 4.
Compound CSCC[C@H](NC(=O)[C@H](CC(C)C)NC(=O)[C@@H](N)CCC(N)=O)C(=O)N[C@@H](C)C(=O)N[C@@H](CCC(=O)O)C(=O)N[C@@H](CCCCN)C(=O)N[C@@H](CC(C)C)C(=O)N[C@@H](CCC(N)=O)C(=O)N[C@@H](CC(C)C)C(=O)O has an Alleles bound of 3.

Same assay, conditions: number of the five alleles A*0201, A*0202, A*0203, A*0206, A*6802 bound
Work on CSCC[C@H](NC(=O)[C@H](CC(C)C)NC(=O)[C@@H](N)CCC(N)=O)C(=O)N[C@@H](C)C(=O)N[C@@H](CCC(=O)O)C(=O)N[C@@H](CCCCN)C(=O)N[C@@H](CC(C)C)C(=O)N[C@@H](CCC(N)=O)C(=O)N[C@@H](CC(C)C)C(=O)O [compound 92] yielded an Alleles bound of 3.
Compound CC[C@H](C)[C@H](NC(=O)[C@@H](N)[C@@H](C)O)C(=O)N[C@@H](Cc1c[nH]c2ccccc12)C(=O)N[C@@H](C)C(=O)N[C@@H](C)C(=O)N[C@@H](CC(N)=O)C(=O)N[C@@H](C)C(=O)NCC(=O)N[C@H](C(=O)O)C(C)C [compound 27] has an Alleles bound of 5.
With CC(C)C[C@H](NC(=O)[C@H](CS)NC(=O)[C@H](CCC(=O)O)NC(=O)[C@@H](NC(=O)[C@H](C)NC(=O)[C@H](CC(=O)O)NC(=O)[C@H](CO)NC(=O)[C@H](CCC(=O)O)NC(=O)[C@H](CC(C)C)NC(=O)[C@@H]1CCCN1)C(C)C)C(=O)O [compound 24] the Alleles bound was 0.
For CC(C)C[C@H](NC(=O)[C@H](Cc1cnc[nH]1)NC(=O)[C@H](CCC(=O)O)NC(=O)CNC(=O)[C@H](C)NC(=O)CNC(=O)[C@H](CO)NC(=O)[C@H](CC(C)C)NC(=O)[C@H](CC(C)C)NC(=O)[C@@H](N)Cc1ccc(O)cc1)C(=O)O [compound 84], the Alleles bound was 4.
In the case of CC[C@H](C)[C@H](NC(=O)CNC(=O)CNC(=O)[C@H](C)NC(=O)[C@@H](NC(=O)[C@@H](N)CO)[C@@H](C)CC)C(=O)N[C@H](C(=O)NCC(=O)N[C@H](C(=O)O)C(C)C)[C@@H](C)CC [compound 14], the Alleles bound is reported as 5.
With CC[C@H](C)[C@H](NC(=O)[C@H](CCC(=O)O)NC(=O)[C@H](CCC(=O)O)NC(=O)[C@H](CO)NC(=O)[C@H](Cc1ccc(O)cc1)NC(=O)[C@@H](NC(=O)[C@@H]1CCCN1C(=O)[C@H](CC(C)C)NC(=O)[C@@H](N)CC(N)=O)[C@@H](C)CC)C(=O)O [compound 61] the Alleles bound was 5.
Compound CC(C)C[C@H](NC(=O)[C@H](CCC(N)=O)NC(=O)[C@H](CCCNC(=N)N)NC(=O)[C@H](CCCCN)NC(=O)[C@H](CC(C)C)NC(=O)[C@H](CCC(N)=O)NC(=O)[C@H](CCCCN)NC(=O)[C@H](CC(C)C)NC(=O)[C@@H](N)CCCNC(=N)N)C(=O)O [compound 176] has an Alleles bound of 0.
CC[C@H](C)[C@H](NC(=O)[C@@H](NC(=O)[C@@H](NC(=O)[C@H](CC(=O)O)NC(=O)[C@@H](NC(=O)[C@@H](NC(=O)[C@H](CCCCN)NC(=O)[C@H](CC(C)C)NC(=O)[C@@H](N)CC(=O)O)[C@@H](C)CC)[C@@H](C)O)C(C)C)[C@@H](C)CC)C(=O)O [compound 164] was tested, and the Alleles bound was 0.
CC(C)C[C@H](NC(=O)[C@H](CCC(=O)O)NC(=O)[C@H](CCC(=O)O)NC(=O)[C@H](C)NC(=O)[C@H](CCC(=O)O)NC(=O)[C@H](C)NC(=O)[C@H](CS)NC(=O)[C@H](CC(C)C)NC(=O)[C@@H](N)CCC(=O)O)C(=O)O [compound 137] showed an Alleles bound of 1.
For CC[C@H](C)[C@H](NC(=O)[C@H](CCCCN)NC(=O)[C@H](CC(C)C)NC(=O)[C@H](CC(=O)O)NC(=O)[C@H](CCCNC(=N)N)NC(=O)[C@H](CCC(=O)O)NC(=O)[C@H](CCC(=O)O)NC(=O)[C@H](CCC(=O)O)NC(=O)[C@H](CC(C)C)NC(=O)[C@@H](N)Cc1c[nH]cn1)C(=O)O [compound 181], the Alleles bound was 0.
Work on CC(C)C[C@H](NC(=O)[C@H](CC(=O)O)NC(=O)[C@@H](NC(=O)[C@H](CO)NC(=O)[C@H](CC(=O)O)NC(=O)CNC(=O)[C@H](CCC(=O)O)NC(=O)[C@H](CC(C)C)NC(=O)[C@@H](N)CCCCN)[C@@H](C)O)C(=O)O [compound 140] yielded an Alleles bound of 1.
CC(C)C[C@H](NC(=O)[C@@H](N)CCC(=O)O)C(=O)N[C@H](C(=O)N[C@@H](CCC(=O)O)C(=O)N[C@@H](CC(N)=O)C(=O)NCC(=O)N[C@@H](CCCCN)C(=O)N[C@@H](CCCCN)C(=O)N[C@H](C(=O)O)C(C)C)C(C)C [compound 161] showed an Alleles bound of 0.
In the case of CSCC[C@H](NC(=O)CN)C(=O)N[C@@H](Cc1ccccc1)C(=O)N[C@@H](CCCNC(=N)N)C(=O)N[C@H](C(=O)N[C@H](C(=O)NCC(=O)N[C@@H](CCC(N)=O)C(=O)N[C@@H](CC(C)C)C(=O)O)C(C)C)[C@@H](C)O [compound 113], the Alleles bound is reported as 2.
Compound CC(C)C[C@H](NC(=O)[C@H](CC(=O)O)NC(=O)[C@H](CCC(=O)O)NC(=O)[C@H](CC(C)C)NC(=O)[C@H](CC(=O)O)NC(=O)CNC(=O)[C@H](CCC(=O)O)NC(=O)[C@H](CC(C)C)NC(=O)[C@@H](N)CO)C(=O)O [compound 44] has an Alleles bound of 1.
CC(C)C[C@H](NC(=O)[C@@H](N)CCCCN)C(=O)N[C@@H](CCCNC(=N)N)C(=O)N[C@@H](CCCNC(=N)N)C(=O)NCC(=O)N[C@@H](CC(=O)O)C(=O)N[C@@H](CC(C)C)C(=O)N1CCC[C@H]1C(=O)N[C@@H](Cc1ccccc1)C(=O)N[C@H](C(=O)O)C(C)C [compound 89] was tested, and the Alleles bound was 4.
CSCC[C@H](NC(=O)[C@@H](N)CCC(=O)O)C(=O)N[C@@H](CCCNC(=N)N)C(=O)N[C@@H](CCC(=O)O)C(=O)N[C@@H](CCC(N)=O)C(=O)N[C@@H](Cc1c[nH]cn1)C(=O)N[C@@H](CC(=O)O)C(=O)N[C@@H](C)C(=O)N[C@@H](CCC(N)=O)C(=O)N[C@H](C(=O)O)C(C)C [compound 54] gave an Alleles bound of 0.
CC[C@H](C)[C@H](NC(=O)[C@H](Cc1ccc(O)cc1)NC(=O)[C@@H](NC(=O)[C@H](C)NC(=O)[C@H](CC(C)C)NC(=O)[C@H](CCCNC(=N)N)NC(=O)[C@H](CC(=O)O)NC(=O)[C@H](CC(N)=O)NC(=O)[C@H](CC(C)C)NC(=O)[C@@H](N)CCC(=O)O)C(C)C)C(=O)O [compound 38] showed an Alleles bound of 2.
With CC(C)C[C@H](NC(=O)[C@H](CC(N)=O)NC(=O)[C@H](CO)NC(=O)[C@H](CC(C)C)NC(=O)[C@H](CCC(N)=O)NC(=O)[C@H](CO)NC(=O)[C@H](CO)NC(=O)[C@H](CC(C)C)NC(=O)[C@@H](N)CO)C(=O)O [compound 29] the Alleles bound was 4.

Same assay, conditions: number of the five alleles A*0201, A*0202, A*0203, A*0206, A*6802 bound; Table 13
CC(C)C[C@H](NC(=O)[C@H](CO)NC(=O)[C@H](Cc1ccccc1)NC(=O)[C@H](CC(=O)O)NC(=O)[C@@H](NC(=O)[C@H](CO)NC(=O)[C@H](CC(=O)O)NC(=O)[C@H](CCC(N)=O)NC(=O)[C@H](CC(C)C)NC(=O)[C@@H](N)CC(C)C)C(C)C)C(=O)O gave an Alleles bound of 4.
